Test results from PubChem BioAssay (NCI).
Several values for one entry are separate records, joined by “and”; a condition that tells them apart may be missing. Equal entries are not always repeated.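 Values below derive from 48-hour exposures of cells grown in 96-well plates, with endpoints linearly interpolated between the two concentrations bracketing the appropriate inhibition level. GI50: concentration for 50% inhibition of growth. The concentration for full growth arrest is given as TGI.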

Assays:
Experiment in all cases: growth of human tumour cells (NCI), 48 h
COLO 205 colon = system: COLO 205 colon
HCT-116 colon = system: HCT-116 colon
HOP-18 NSCLC = system: HOP-18 NSCLC
HS 578T breast = system: HS 578T breast
KM20L2 colon = system: KM20L2 colon
LOX IMVI melanoma = system: LOX IMVI melanoma
MDA-MB-435 = system: MDA-MB-435
MDA-N = system: MDA-N
RXF 393 renal = system: RXF 393 renal
SR leukemia = system: SR leukemia
T-47D breast = system: T-47D breast
XF 498 CNS = system: XF 498 CNS

CC(=O)OCC12CCC(C)=CC1OC1C(O)C(OC(C)=O)C2(C)C12CO2 (stereo unspecified)
TGI (COLO 205 colon): 48.8 nM and 30.3 nM | TGI (HCT-116 colon): 34.2 nM and 15 nM | GI50 (HOP-18 NSCLC): 27.6 nM | TGI (HOP-18 NSCLC): 108 nM and 379 nM | TGI (HS 578T breast): 40.8 nM and 27.9 nM | TGI (KM20L2 colon): 44.2 nM | TGI (LOX IMVI melanoma): 22.4 nM | GI50 (MDA-MB-435): 10.1 nM | TGI (MDA-MB-435): 29.2 nM and 24.7 nM | GI50 (MDA-N): 16.8 nM and 13.6 nM | TGI (MDA-N): 47.2 nM and 37.9 nM | TGI (RXF 393 renal): 4.13 nM and 35.6 nM and 23.5 nM | GI50 (SR leukemia): 1.23 nM | TGI (SR leukemia): 12.5 nM and 14.2 nM | TGI (T-47D breast): 65.9 nM and 237 nM | TGI (XF 498 CNS): 3.03 nM and 21.9 nM
